The nature of the data set: Plasma concentrations of tamoxifen and its metabolites (HPLC) in women with breast cancer taking tamoxifen, by UGT2B7 genotype and CYP2D6 score. From the text: Patients. […] Subjects for the registry were recruited from the Breast Oncology Program at the University of Michigan Comprehensive Cancer Center and the Indiana University Cancer Center. […] Patients were enrolled after they had completed all primary surgery, radiation, and adjuvant chemotherapy. Specimens and data from this registry has been sed for several other studies, as reported previously,[16],[6],[17].
Study design. […] At the indicated time points, medical histories, including a comprehensive list of current medications, were obtained, and blood samples (5 mL) were drawn. […]
UGT 2B7 genotyping. […] UGT2B7 codon 268 genotypes were determined by real-time PCR assays using the TaqMan Drug Metabolism Genotyping Assay C—32449742—20 (Applied Biosystems, Foster City, Calif.) in the ABI 7900HT sequence detection system equipped with an autoloader in the Functional Genomics Core Facility at the Penn State College of Medicine. […]
CYP2D6 Gene Score. […] CYP2D6 alleles associated with reduced enzyme activity (e.g. *9,*10, *17, *29, *37, *41, *45, *46) were scored as 0.5.
CYP2D6 Inhibition Factor and CYP2D6 Activity Score. […] The CYP2D6 Activity Score is expressed as the product of multiplying the CYP2D6 Gene Score by the Inhibitor factor, which is defined in the following equation: activity score=(gene score×inhibition factor), […]

Results on one substance are retold here after patent US20120088247A1, “MATERIALS AND METHODS FOR TREATING PATIENTS WITH TAXOXIFEN” (Indian University Research & Technology Corporatio, priority 2009, published 2012).

Take “4-hydroxytamoxifen [4-hydroxy-tamoxifen]”: the “Association of plasma concentration with UGT2B7 genotype” value (FIG. 1, P<0.05 considered significant) is recorded as “not significantly associated”. The “Mean plasma concentration, percent higher in *2/*2 group than *1/*1 group” value (UGT2B7 *2/*2 vs *1/*1 (FIG. 1B), not statistically significant) is 22%.
